# Screening data: PubChem BioAssay, National Center for Advancing Translational Sciences (NCATS)
# ClpP mod – qHTS Assay for Activators of ClpP. purified B. subtilis ClpP, FRET peptide cleavage, 20 min. AID 651965, 2013. Potency, µM (titrated, usually from 57.5 µM), for the others: at the highest dose activity change, negative = active. 1.9% of 340,000 active; active means well fitted falling curve with a large enough effect; inconclusive means small, poorly fitted or top-dose-only effect; inactive means no such curve, though single readings can be large or run the other way; further: potency means the concentration at half of the fitted maximal effect; the source files actives as falling curves though it sought activators and does not explain the sign; nearly all actives have a fitted effect of over 65% in size
#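 Buffer: 100 mM Tris/HCl pH8, 100 mM KCl, 0.05% low protease BSA, 2.5% glycerol, 0.01% Tween-20. ClpP 10 microg/mL final; 20 min RT; delta FRET normalized to ADEP and DMSO controls.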
# miR-21 FLuc – miR-21 reporter, rising signal | 340,000 tested, under 10 active | AID 2288 | HeLa miR-21 FLuc reporter, luciferase, 48 h | Potency, µM (titrated, usually from 38.3 µM), for inactives: at the highest dose reporter change, positive = more light; active = well fitted rising curve with a large enough effect; inconclusive = small, poorly fitted or top-dose-only effect; inactive = no such curve, though single readings can be large or run the other way;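 further: % of control where 0% means no effect; miR-21 action dims this reporter so a rising signal means less miR-21 action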
#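 HeLa cells stably expressing CMV-driven firefly luciferase with a downstream miR-21 binding sequence, endogenously expressing miR-21, were treated with titrations (up to about 40uM final) for 48 hours at 37 degree Celsius. Luciferase luminescence was read after lysis.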
# IL2 activator – activates IL-2 in a cell-based reporter assay. IL-2 activation reporter assay, cell-based qHTS; stimulated with anti-CD3/CD4/CD28 beads; in transgenic mouse T cells. activation, % (series mostly up to about 46 µM). 0.065% of 360,000 active. AID 652025; in the data active means activation above about 50%; inconclusive means mostly about 30% to 49%; further: 0% is about no effect
#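 Readout: EGFP and DsRed signals by fluorescent plate cytometry. Unstimulated transgenic mouse T cells received compound 60 min before antibody-bead stimulation, then incubated 18 h at 37 degrees C.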
# Nrf2 ARE act – activators of Nrf2 (ARE) signaling; AREc32 ARE-luciferase reporter (MCF7-derived line), luminescence, 24 h; Potency, µM (highest dose often 46.1 µM), inactives show at the highest dose activation, hits mostly activators; 0.31% of 410,000 active; further: potency means the concentration at half of the fitted maximal effect; % of control where 0% means no effect; nearly all actives have a fitted effect of over 65% in size
#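 ARE activation measured as luciferase luminescence (Steady-Glo, 30 min RT) in AREc32_Fluc cells after 24 hr compound exposure at 37 deg C, 5% CO2; cells seeded overnight at 1000/well in OPTI-MEM, 5% FBS.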
# Nrf2 block – inhibitors of Nrf2 signaling; 2.1% of 360,000 active; Potency, µM (highest dose often 46 µM), for the others: at the highest dose activity change, negative = inhibition, actives largely listed as inhibitors; A549 ARE-Fluc reporter, luciferase luminescence, 18-24 h; further: potency means the concentration at half of the fitted maximal effect; on the % scale 0 is the no-effect control and ±100 the full control effect; nearly all actives have a fitted effect of over 60% in size
#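 Two sequential reads on A549 ARE_Fluc cells exposed to compound for 18-24 h: a CellTiter-Fluor fluorescence read for viability, then a luciferase luminescence read for Nrf2/ARE activity.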
# A549 viability – kills or reduces viability of A549 cells in Nrf2 counter-screen; A549 ARE-Fluc cells, CellTiter-Fluor viability, 18-24 h; Potency, µM (doses to about 46 µM), without a hit: at the top dose activity change, negative = cytotoxicity, actives largely listed as inhibitors; 0.16% of 390,000 active; AID 504648; further: potency means the concentration at half of the fitted maximal effect; on the % scale 0 is the no-effect control and ±100 the full control effect
#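 A549 ARE_Fluc cells in 5% FBS OPTI-MEM were exposed to compounds in concentration-response for 18-24 h at 37 deg C. Viability was read by CellTiter-Fluor fluorescence (Ex 405/Em 525) after 30 min, before the luciferase read.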
# An asterisk follows results filed as active; ? = inconclusive; . = no result given; [ ] = dose if it differs, or a comment. Compounds with a hit are over-represented: about 3.7% of the library has one in this group of screens. Unless noted, the call rests on the fitted dose curve; in most records, active means well fitted curve in the direction sought with a large enough effect; inconclusive means small, poorly fitted or top-dose-only effect, or another doubt; inactive means no such curve, though single readings can be large; an effect the other way counts as inactive or inconclusive.
structure	ClpP mod	miR-21 FLuc	IL2 activator	Nrf2 ARE act	Nrf2 block	A549 viability
COC(=O)[C@]1(Cc2ccccc2)N[C@H](c2ccc(-c3cc(C(C)=O)cs3)cc2)[C@@H]2C(=O)N(C)C(=O)[C@@H]21	18µM*	.	0	1%	?	-13%
CCC1CCCCN1c1cc(C)nc2cc(-c3cccc(C)c3)nn12 (stereo not drawn)	28µM*	-1%	-3	4%	?	-9%
Cc1cc(N2CCOCC2)n2nc(-c3cccc(F)c3)cc2n1	?	-23%	0	?	-18%	-5%
O=C(NCc1ccccc1Cl)c1ccc(S(=O)(=O)N2CCCC2)cc1	1%	.	0	0%	-2%	3%
CCN(CC)S(=O)(=O)c1ccc(NC(=O)Nc2cccc(C(F)(F)F)c2)cc1	-2%	?	5	2%	21µM*	?
O=C(NCc1ccccc1Cl)c1ccc(S(=O)(=O)Nc2cccc(C(F)(F)F)c2)cc1	20µM*	-1%	-1	3%	?	0%
Cc1ccc(S(=O)(=O)Nc2ccc(NC(=O)Nc3cccc(C(F)(F)F)c3)cc2)cc1	2%	?	-4	-3%	18µM*	?
O=C(Nc1ccc(OC(F)F)cc1)Nc1cccc(C(F)(F)F)c1	0%	?	0	0%	21µM*	?
CCOc1ccc(CNC(=O)Cn2ccc3cc(S(=O)(=O)N4CCCCC4)ccc32)cc1	-6%	0%	.	7%	?	-14%
O=C(c1ccccc1)N1CCN(c2nc(-c3cccs3)nc3ccccc23)CC1	.	.	.	.	?	-11%
NC(=O)/C=C\C(=O)Nc1cccc(C(F)(F)F)c1	-2%	1%	-3	?	1.8µM*	-21%
S=C(Nc1ccc(Oc2ccccc2)cc1)N1CCN(c2ccccn2)CC1	.	-3%	-2	2%	16µM*	-21%
COc1ccccc1NC(=O)N1CCN(c2ccccn2)CC1	4%	0%	0	0%	-20%	-1%
CC(=NNC(=S)N1CCN(c2ccccn2)CC1)c1ccccn1	-7%	.	-5	5%	-4%	-4%
O=C1CC(C(=O)N2CCN(c3ccccn3)CC2)CN1Cc1ccccc1Cl (stereo not drawn)	32µM*	.	-4	0%	-6%	2%
Cc1ccc(N2CC(C(=O)N3CCN(c4ccccn4)CC3)CC2=O)cc1 (stereo not drawn)	.	.	-2	0%	3%	-8%
O=C(Nc1ccccc1Cl)N1CCN(c2ccccn2)CC1	22µM*	-21%	-2	-1%	?	-4%
CC(=NNC(=S)N1CCN(c2ccccn2)CC1)c1nccs1	?	.	0	6%	13µM*	-27%
Cc1cc2c(s1)c1cnn(Cc3cccc(F)c3)c(=O)c1n2C	.	.	.	.	-12%	1%
O=P(c1ccccc1)(c1ccccc1)c1cnc2ccccn12	.	.	.	.	-17%	0%

# Looked up one by one from above, 3 records:
structure	ClpP mod	miR-21 FLuc	IL2 activator	Nrf2 ARE act	Nrf2 block	A549 viability
CC(=NNC(=S)N1CCN(c2ccccn2)CC1)c1ccccn1	-7%	.	-5	5%	-4%	-4%
O=C(c1ccccc1)N1CCN(c2nc(-c3cccs3)nc3ccccc23)CC1	.	.	.	.	?	-11%
O=C(NCc1ccccc1Cl)c1ccc(S(=O)(=O)N2CCCC2)cc1	1%	.	0	0%	-2%	3%

# (continued)
structure	ClpP mod	miR-21 FLuc	IL2 activator	Nrf2 ARE act	Nrf2 block	A549 viability
COc1ccc(C2Nc3ccccc3C(=O)N2Cc2ccco2)cc1COc1ccc(N)cc1 (stereo not drawn)	.	.	.	.	-8%	-15%
Cc1nc2cc(NC(=O)N3CCN(c4ccccn4)CC3)ccc2o1	25µM*	-11%	-2	0%	-9%	-3%[1.84 µM]
CCOC(=O)c1ccc(NC(=O)N2CCN(CCc3ccccc3)CC2)cc1	-3%	-22%	3	4%	.	15%
CCOC(=O)N1CCN(C(=O)Nc2ccc3oc(C)nc3c2)CC1	-2%	-11%	-1	-1%	-3%	-5%
CCOC(=O)c1ccc(NC(=O)N2CCN(c3ccccn3)CC2)cc1	22µM*	9%	-2	0%	?	-11%
CCN(CC)CCCOc1cc2nc(N3CCCN(C)CC3)nc(NC3CCN(C)CC3)c2cc1OC	4%	.	.	.	.	.
CCN(Cc1ccccc1)S(=O)(=O)c1ccc(N2CCCCS2(=O)=O)cc1	-3%	10%	.	0%	.	0%
CCN(CC)c1ccc(C2C(C(=O)Nc3ccccc3C)=C(C)Nc3ncnn32)cc1 (stereo not drawn)	1%	-1%	.	3%	.	10%
Cc1ccc(NC(=O)C(=O)NCC(c2ccc3c(c2)OCO3)N2CCN(C)CC2)cc1C (stereo not drawn)	-4%	-5%	.	0%	.	6%
CCCOc1ccccc1Cn1c(=O)oc2ccc(C)cc21	0%	-11%	-4	-1%	-15%	0%
COc1ccccc1OCCCn1c(=O)oc2ccc(C)cc21	-3%	-34%	0	0%	-25%	0%
CCOc1ccccc1Cn1c(=O)oc2ccc(C)cc21	25µM*	-18%	6	-1%	.	9%
COc1cc(Cn2c(=O)oc3ccc(C)cc32)ccc1OCCC(C)C	-1%	-1%	.	4%	21µM*	-8%
COCCn1c(C)cc(O)c(C(c2ccccc2F)N2CCN(c3ccccc3)CC2)c1=O (stereo not drawn)	0%	-1%	.	0%	.	17%
Clc1cncc(Cl)c1NNc1c2ccccc2nc2ccccc12	28µM*	-7%	-1	5%	-22%	-3%
O=C(NNc1c2ccccc2nc2ccccc12)c1ccc(Cl)cc1	.	-1%	0	-1%	?	-18%
O=C(NC1CCCCCC1)c1c(O)c2ccccc2[nH]c1=O	-7%	-40%	1	14%	3%	-8%
O=C(Cc1c(O)c2ccccc2[nH]c1=O)NC1CCCCCC1	20µM*	-10%	0	0%	-5%	0%
O=C(Cc1c(O)c2ccccc2[nH]c1=O)NC1CCCCCCC1	32µM*	-11%	-1	0%	-7%	-1%
CCN(CC)C(=O)Cc1c(O)c2ccccc2[nH]c1=O	4%	3%	0	-1%	6%	3%
Cc1ccc(NC(=O)C(=O)NCC(c2cccnc2)N2CCN(Cc3ccccc3)CC2)cc1C (stereo not drawn)	-2%	-32%	.	5%	?	4%
COc1cc(OC)cc(-c2nnc3n2N=C(c2c(OC)cccc2OC)CS3)c1	.	.	.	.	?	-2%
COc1ccc(OC)c(NC(=O)C2CCN(S(=O)(=O)c3ccc4c(c3)CCCC(=O)N4)CC2)c1	0%	-1%	.	-2%	-7%	1%
COc1ccccc1C(=O)NCCC(=O)NNC(=O)c1ccccc1O	25µM*	.	0	0%	2%	19%
COc1ccccc1C(=O)NCCSCc1ccccc1Cl	7.1µM*	-36%	3	1%	-6%	-3%
COc1ccccc1OCCNC(=O)c1ccccc1C	0%	-22%	-2	1%	12%	-21%
Cc1ccccc1OCCNC(=O)CNC(=O)c1ccccc1O	28µM*	-9%	8	-1%	.	-6%

# Entries of single compounds as entered above.
# O=C(NCc1ccccc1Cl)c1ccc(S(=O)(=O)Nc2cccc(C(F)(F)F)c2)cc1 is entered as ClpP mod: 20µM*; miR-21 FLuc: -1%; IL2 activator: -1; Nrf2 ARE act: 3%; Nrf2 block: ?; A549 viability: 0%
# O=C(Cc1c(O)c2ccccc2[nH]c1=O)NC1CCCCCC1 is entered as ClpP mod: 20µM*; miR-21 FLuc: -10%; IL2 activator: 0; Nrf2 ARE act: 0%; Nrf2 block: -5%; A549 viability: 0%
